Experimental findings from patent CN106632674A (AKESO BIOPHARMA INC, dated 2017) are described below.

The chains behind the UniProt entries cited, without tags or fusion partners. Residues count along the entry.
UniProt Q15116, 25-170: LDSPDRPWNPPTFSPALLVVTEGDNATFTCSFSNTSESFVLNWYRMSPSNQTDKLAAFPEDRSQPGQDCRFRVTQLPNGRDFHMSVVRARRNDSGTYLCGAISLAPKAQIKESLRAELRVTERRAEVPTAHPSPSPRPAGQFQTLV
UniProt Q15116, 25-288: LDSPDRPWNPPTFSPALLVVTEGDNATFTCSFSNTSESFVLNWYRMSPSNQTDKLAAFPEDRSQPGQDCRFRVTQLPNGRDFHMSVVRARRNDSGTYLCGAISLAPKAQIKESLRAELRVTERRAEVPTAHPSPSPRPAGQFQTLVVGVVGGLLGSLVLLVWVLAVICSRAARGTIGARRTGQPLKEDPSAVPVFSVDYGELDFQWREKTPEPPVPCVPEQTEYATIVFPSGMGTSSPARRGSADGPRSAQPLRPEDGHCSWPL

One assay has as its target T1, PD-1ECD-TEV-hFc融合蛋白 (human).
T1 construct: Expressed in 293F cells, purified on Mabselect SuRe; also called PD-1-hFc; PD1-hFc
As to the kind of experiment: competition ELISA, antibody titrated from 1.5 ug/ml against PDL-1 Fc fusion (2 ug/ml; PDL-1-mFc taken) on coated PD-1 Fc fusion (PD-1-hFc taken). Background: ELISA stands for enzyme-linked immunosorbent assay.

Assay [1] has as its target T2, 抗原PD-1 (PD-1ECD released from PD-1-mFc by TEV protease, biotin-labelled) (human, UniProt Q15116 25-170, biotin-labelled (site not stated)).
T2 construct: extracellular domain; by the stated lengths (389 aa whole, 239 aa TEV site + mFc printed) it has 150 residues; also called PD-1抗原
The assay can be described thus: BLI (Fortebio), biotinylated PD-1 on SA sensor, antibody 3-fold dilutions from 200 nM.

The target of assay [2] is T3, PD-1 on the surface of 293T-PD-1 cells (293T stably transfected with pLenti6.3-PD-1) (human, UniProt Q15116 25-288).
T3 construct: whole, on cells; also called 细胞表面抗原PD-1
As to the kind of experiment: flow cytometry, inhibition of the binding of 20 nM PDL-1-mFc to 293T-PD-1 cells, antibody 1-100 nM. Background: In flow cytometry, cells or beads pass a laser one at a time.

Assay [3] deals with T3, PD-1 on the surface of 293T-PD-1 cells …. The assay can be described thus: flow cytometry on 293T-PD-1 cells, antibody 0.01-50 nM.
In assay [4] the target is T4, PD-1ECD-TEV-mFc融合蛋白 (human).
T4 construct: Expressed in 293F cells, purified on Mabselect SuRe; also called PD-1-mFc; PD1-mFc
As to the kind of experiment: indirect ELISA, coated PD-1 Fc fusion (mFc form taken for the human-Fc antibody), run together with 6F5H1L1 and 5C4.

The target in assay [5] is T4, PD-1ECD-TEV-mFc融合蛋白. The assay can be described thus: indirect ELISA, coated PD-1 Fc fusion.

B1: 人源化抗体6F5H2L2 (antibody, V domains shown)
VH: EVQLVESGGGLVQPGGSLRLSCAASGFTFSSYGMSWVRQAPGKGLEWVATISGGGSDTYYADSVKGRFTISRDNSKNTLYLQMNSLRAEDTAVYYCARQLNYAWFAYWGQGTLVTVSS
VL: DIVLTQSPASLAVSPGQRATITCRASESVDNYGISFMNWYQQKPGQPPKLLIYTSSNKDTGVPARFSGSGSGTDFTLTINPMEAEDTAVYYCQQSKEVPWTFGGGTKLEIKR
On to B1, for which the EC50 (as a rule, the midpoint of the concentration-response curve) with PD-1ECD-TEV-hFc融合蛋白 is 1.18 nM; in assay [2], 8.09 nM; in assay [3] it was 5.02 nM; with PD-1ECD-TEV-mFc融合蛋白 [4], 0.1 nM. Moreover, the Kd (as a rule, the constant that tells how readily two partners part at equilibrium) in assay [1] is 0.234 nM. Also, the koff – broadly, the rate constant with which the complex falls apart – in assay [1] came to 0.000103 s⁻¹. The kon (usually the second-order rate constant of association) in assay [1] was found to be 439000 M⁻¹ s⁻¹. Further, the “EC50 ratio to 5C4” value with PD-1ECD-TEV-mFc融合蛋白 [5] is ~0.5 fold of the EC50 of 5C4.
